Assay results as given in patent US6638531B1, “Antimicrobial peptides” (priority 1998, dated 2003).

Tested on: artificial oral biofilm of seven oral aerobic and anaerobic types of bacteria
Test: Antibacterial activity in an artificial oral biofilm
Format: cell-based
Conditions: 0.5 h, 100 μg/ml, pH 7
Protocol: An artificial oral biofilm was made by placing hydroxyapatite discs for five days in a continuous culture system of seven oral aerobic and anaerobic types of bacteria (Streptococcus mutans, Streptococcus sanpuis, Streptococcus salivarius, Actinomyces naeslundii, Veillonella parvula, Prevotella intermedia and Fusobacterium nucleatum) The discs with the biofilm formed thereon were subsequently incubated for half an hour with different concentrations of peptide in 10 mM potassium phosphate buffer, pH 7.0. The biofilm was then sonicated from the discs, diluted in PBS and plated out on semi-selective agar plates. The total […] were counted (Streptococci+Actinomyces) on aerobic incubated blood agar plates, the total Gram-negative counts (Veilonella, Fusobacterium and Prevotella) on vancomycin-containing plates and the total counts on the anaerobic incubated blood agar.

Compound: CC[C@H](C)[C@H](NC(=O)[C@H](CCC(=O)O)NC(=O)[C@H](CCC(=O)O)NC(=O)[C@H](CC(=O)O)NC(=O)[C@H](CO)NC(=O)[C@H](C)NC(=O)[C@H](CC(C)C)NC(=O)[C@@H](N)CC(C)C)C(=O)N[C@@H](CCC(N)=O)C(=O)N[C@@H](CC(=O)O)C(=O)N[C@H](C(=O)N[C@@H](CO)C(=O)NCC(=O)N[C@H](C(=O)N[C@@H](Cc1c[nH]c2ccccc12)C(=O)N[C@@H](Cc1ccc(O)cc1)C(=O)N[C@@H](CC(C)C)C(=O)N[C@@H](CCCCN)C(=O)N[C@@H](C)C(=O)O)[C@@H](C)O)C(C)C [negative control peptide, LLASDEEIQDVSGTWYLKA, reference compound]
- % reduction in viability counts, total Gram-negative average (s.d.): 41.5 (183.6) %
- % reduction in viability counts, total aerobic average: 96.6%
- % reduction in viability counts, total anaerobic average: −71.7%
